Results from paper doi:10.1101/2023.10.07.561329 (bioRxiv, 2023).

Target: T1, KLHL22^1-178 (Homo sapiens, UniProt Q53GT1 1-178)
T1 sequence: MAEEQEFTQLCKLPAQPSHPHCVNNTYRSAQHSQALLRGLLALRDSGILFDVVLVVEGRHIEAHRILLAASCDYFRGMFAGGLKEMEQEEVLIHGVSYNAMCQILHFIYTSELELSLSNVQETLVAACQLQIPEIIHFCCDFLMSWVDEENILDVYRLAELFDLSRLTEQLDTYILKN
Assay: SEC-MALS

stoichiometry N: 2 CUL3-RBX1 per KLHL22^1-178 dimer
B1: CUL3^WT-RBX1 (complex)
chain 1: not shown
chain 2: not shown
